The values below come from patent US20080160006A1, “Nutrient Medium for Maintaining Neural Cells in Injured Nervous System” (priority 2001, published 2008).

The assay concerns human cortical brain cells (neurons vs glia). Put plainly: Adult human cortical brain cells cultured in B27/Neurobasal A, immunostained for neurofilament and GFAP. Format: cell-based. The text has this:
GENERAL METHODS. Brain tissue was ethically obtained by informed consent from patients before surgery under protocols approved by the Springfield Committee for Research on Human Subjects and the UC Irvine IRB. […] Rather than using aspiration to remove all tissue, slices of tissue 1-3 mm thick were obtained from cortical access ports or tissue that was marginal to the lesion. Use of electrocautery was kept to a minimum to reduce oxyradicals and other neuron damage. […] Hibernate A contains D-glucose, pyruvate, balanced salts, amino acids, and vitamins. B27 contains 5 antioxidants and 15 other components. […] After transport on ice to a laminar flow sterile hood in the culture laboratory, meninges and white matter were removed from the tissue with a scalpel and forceps in a 35 mm dish in 2 ml transport medium. […] The cell suspension was enriched for neurons by centrifugation on a density gradient of Optiprep (Invitrogen). […] The diluted Optiprep was further diluted with transport medium (v/v) to make a gradient containing 4 steps of 1 ml in a 15 ml centrifuge tube: bottom (0.35:0.65), 0.25:0.75, 0.2:0.8, top (0.15:0.85). Up to 6 ml of cell suspension was layered over the Optiprep step gradient. […] Cells were plated at a density of 320/mm^2 onto glass coverslips coated with polylysine as previously described. Cells were cultured in Neurobasal™ A medium (Invitrogen) with 2 percent B27, 5 ng/ml FGF2 (basic human recombinant fibroblast growth factor, Invitrogen) and 0.5 mM glutamine in a humidified atmosphere of 9 percent O2, and 5 percent CO2 (Forma, Marietta, Ohio). […] EGF (20 ng/ml; murine, Invitrogen) and NT3 (100 ng/ml; recombinant, Regeneron) were added as indicated from 500× stock solutions in 1 percent BSA/PBS. Half of the medium was replaced with fresh medium every 3-4 days.
For immunocytology, cultures were rinsed twice in warm PBS and fixed for 10 minutes in 4 percent paraformaldehyde in PBS. After rinsing twice with PBS, cells for GFAP staining were postfixed for 20 minutes in acetic acid/ethanol (1:9, v/v) before rinsing again with PBS. Non-specific sites were blocked, and cells were permeabilized for 5 minutes in 5 percent normal goat serum, and 0.5 percent Triton X-100. Cells were incubated with primary antibodies for 1 hour at 22° C. in 5 percent goat serum, and 0.05 percent Triton as follows: mouse anti-neurofilament 200 (1:40, Sigma) with rabbit anti-cow GFAP (1:2000, Dako), or mouse anti-MAP2 (1:250, Boeringer-Mannheim) with rabbit anti-tau (1:2000). After rinsing four times with PBS, cells were incubated 1 hour at 22° C. with a rhodamine-conjugate of goat anti-rabbit IgG (heavy+light chain, 1:500, Tago) together with a cy2-conjugate of goat anti-mouse IgG (heavy+light chain, 1:100, Jackson). After rinsing four times in PBS, coverslips were mounted with Aquamount and imaged through a Nikon 60×/1.4 objective using a Spot cooled CCD camera (Diagnostic Instruments).
Human cortical brain tissue was obtained for culture from eleven consecutive surgical cases, including seven tumor cases, three cases of epilepsy, and one case of suprabulbar palsy. Patients ranged in age from 41 to 70 years.
Neuronal Characteristics of Isolated Cells. Cytoskeletal components were used as specific markers to distinguish neurons from glia. Microtubule associated proteins, MAP2 and tau, are generally associated with somatodendritic and axonal regions of neurons, respectively.

Where [1] appears, read: surgical sample 1, glioma r. temporal, 46 M, addition to B27/Neurobasal A, after 6 days.

Regarding `C[C@]12CC[C@H](OS(=O)(=O)O)CC1=CC[C@@H]1[C@@H]2CC[C@]2(C)C(=O)CC[C@@H]12` [DHEAS, dehydroepiandrosterone 3-sulphate, reference compound], under “DHEAS at 10 μg/ml, three cases”, the “promoting survival of neurofilament positive, neuron-like cells, compared to FGF2” value is recorded as “as effective as FGF2”. Under setting [1], the “% GFAP (mean ± S.D.)” value turned out to be 31 ± 9%. The “% Neurofilament (mean ± S.D.)” value under setting [1] is 70 ± 12%; the “% Neurofilament (mean ± S.D.)” value (surgical sample 3, glioma l. frontal, 41 M, addition to B27/Neurobasal A, after 6 days) is 61 ± 10%; the “% Neurofilament (mean ± S.D.)” value (surgical sample 5, meningioma r. temporal, 70 µM, addition to B27/Neurobasal A, after 6 days) came out at 25 ± 10%.
